{
  "source": "ChEMBL document CHEMBL4837254",
  "about": "“Discovery of Investigational Drug CT1812, an Antagonist of the Sigma-2 Receptor Complex for Alzheimer's Disease” (ACS Med Chem Lett, 2021)",
  "experiment": "Half life in mouse liver microsomes",
  "format": "ADME, Microsome",
  "data": [
    {"smiles": "COc1cc(CCC(C)NCc2ccc(C(F)(F)F)cc2)ccc1O", "note": "(stereo unspecified)", "values": [
      {"measurement": "half-life", "value": 16, "unit": "min"}
    ]}
  ]
}
